# Data as given in PubChem BioAssay AID504357 (The Scripps Research Institute Molecular Screening Center, 2011).
# Protein sequences, listed by entry. Tags and fused reporters are not part of them.
# UniProt P35372, whole entry, looked up: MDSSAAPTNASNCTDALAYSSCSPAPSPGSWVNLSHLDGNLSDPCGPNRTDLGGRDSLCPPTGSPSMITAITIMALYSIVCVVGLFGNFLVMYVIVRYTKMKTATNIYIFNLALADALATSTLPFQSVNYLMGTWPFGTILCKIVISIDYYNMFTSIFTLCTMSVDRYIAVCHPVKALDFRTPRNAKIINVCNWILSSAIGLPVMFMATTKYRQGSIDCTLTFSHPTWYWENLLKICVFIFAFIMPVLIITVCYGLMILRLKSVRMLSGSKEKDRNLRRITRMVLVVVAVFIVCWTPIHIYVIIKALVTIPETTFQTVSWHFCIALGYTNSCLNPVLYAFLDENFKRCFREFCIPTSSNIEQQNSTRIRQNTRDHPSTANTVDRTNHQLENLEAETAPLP
# UniProt P41143, whole entry, looked up: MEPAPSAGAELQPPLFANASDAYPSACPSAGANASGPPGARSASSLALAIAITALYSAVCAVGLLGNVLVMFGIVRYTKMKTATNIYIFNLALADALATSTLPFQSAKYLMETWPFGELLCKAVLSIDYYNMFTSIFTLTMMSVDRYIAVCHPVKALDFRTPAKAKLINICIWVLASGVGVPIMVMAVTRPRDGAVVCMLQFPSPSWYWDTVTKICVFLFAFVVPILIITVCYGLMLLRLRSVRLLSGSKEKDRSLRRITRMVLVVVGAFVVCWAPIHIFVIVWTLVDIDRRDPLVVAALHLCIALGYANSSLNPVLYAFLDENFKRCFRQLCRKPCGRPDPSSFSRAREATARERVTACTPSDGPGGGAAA
# The entries are a selection whose mix differs from that of the whole data set. Active and inactive are the calls of the source. Cut-off read from the data, not from the text of the source: active = inhibition above about 22% (passing the limit was not always enough); inactive = the rest.
# Target: Mu-type opioid receptor (Homo sapiens) + Delta-type opioid receptor (Homo sapiens) (UniProt P35372+P41143)
# Experiment: OPRM1-OPRD1 heterodimer inverse agonism – cell-based, luminescence, primary screen (AID 504357);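 note: 0% = cells with DMSO and 100% = wells without cells with DMSO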
# Settings: cell-based MOR-DOR heterodimer luminescence, at 9.3 µM, hits give high values
row,SMILES,inhibition
1,COc1ccc(/C=N/NC(=O)Cn2cnc3c2c(=O)n(C)c(=O)n3C)cc1,inactive: 17.2%
2,COC(=O)C1=C(Cn2cnc3ccccc32)NC(=O)NC1c1cc(C)ccc1C (configuration not stated),inactive: 1.94%
3,c1ccc(CN2CCC(Nc3nc(-c4cccnc4)nc4ccccc34)CC2)cc1,inactive: 7.45%
4,CCc1cccc(CC)c1N(COC)C(=O)Cn1c(CO)nc2ccccc21,inactive: 20.7%
5,CCOC(=O)CC[C@H](NC(=O)Cn1cnc2c(SC)nc(N)nc21)C(=O)OCC,inactive: 15.2%
6,CSc1nc2ccccc2n1CC(=O)Nc1ccc(C)c(C)c1,inactive: 3.6%
7,C[C@H](NC(=O)N1CCn2c1nc1ccccc12)C(=O)N1CCCCC1,inactive: 14.4%
8,COc1ccc(Cl)cc1NC(=O)CN(C)C(=O)Cn1cnc2c1c(=O)n(C)c(=O)n2C,inactive: 1.72%
9,O=C(Cn1c(CO)nc2ccccc21)Nc1ccccc1Cl,inactive: 5.86%
10,CC(C)(C)C(=O)NC(Sc1ccccc1)C(Cl)(Cl)Cl (configuration not stated),inactive: -26.4%
11,Cc1ccc2c(c1)C1C[N+](C)(CC(=O)c3ccccc3)CCC1N2C(=O)c1ccccc1Cl (configuration not stated),inactive: -2.76%
12,CC(/C=C/c1ccccc1)=N/NC(=O)CCC(=O)Nc1ccccc1C,inactive: 5.13%
13,COc1cccc(C(=O)CSc2nc3ccccc3n2CC(=O)N2CCOCC2)c1,inactive: 16.7%
14,O=C(Cn1c(-c2cncs2)nc2ccccc21)NCCc1ccccc1,inactive: 4.88%
15,CSc1nc2ccccc2n1CC(=O)Nc1c(C)n(C)n(-c2ccccc2)c1=O,inactive: -7.53%
16,CCOC(=O)c1ccc(NC(=O)Cn2c(-c3nonc3N)nc3ccccc32)cc1,inactive: -60.9%
17,CCc1cc(O)c([N+](=O)[O-])c(C)c1[N+](=O)[O-],inactive: 15.7%
18,COCCNC(=O)Cn1cnc2c1c(=O)n(C)c(=O)n2C,inactive: 13.5%
19,CCOc1ccc(C2=NCC(CBr)S2)cc1 (configuration not stated),inactive: 15.5%

row,SMILES,inhibition
1,COCCN1CCn2c(nc3cc(NC(C)=O)ccc32)C1,inactive: 5.94%
2,Cc1nc2ccccc2n1CC(=O)N1CC(=O)Nc2ccccc21,inactive: -28.7%
3,COc1cccc(CNC(=O)[C@H](CCSC)NC(=O)N2CCn3c2nc2ccccc23)c1,inactive: 14.4%
4,COC(=O)c1ccc(CNC(=O)Cn2cnc3c(NCc4ccccc4)ncnc32)cc1,inactive: 2.49%
5,CC1CN(C(=O)Cn2cnc3c2c(=O)n(C)c(=O)n3C)CC(C)O1 (configuration not stated),inactive: 11.7%
6,C[C@H](NC(=O)N1CCn2c1nc1ccccc12)C(=O)NCc1ccccc1,inactive: 2.6%
7,O=P1(Nc2nc3ccc(Cl)cc3s2)COc2ccccc2O1 (configuration not stated),inactive: 5.35%
8,CCn1c(=O)c2c(nc3n2CCN3c2ccccc2)n(C)c1=O,inactive: 7.12%
9,O=C(Cn1cnc2c(OCc3ccccc3)ncnc21)NCc1ccccc1,inactive: 23%
10,N#Cc1cccc(NC(=O)Cn2c3[n+](c4ccc(C(F)(F)F)cc42)CCCCC3)c1,inactive: 12.8%
11,Cc1ccc2c(c1)C1CN(C)CCC1N2C(=O)COc1ccc(N(C)C(=O)c2ccccc2)cc1 (configuration not stated),inactive: 11.8%
12,N=c1n(CCCOc2ccccc2Cl)c2ccccc2n1CC(N)=O,inactive: 19.6%
13,CC(C)(C)NC(=O)Cn1c(SCC(N)=O)nc2ccccc21,inactive: 11.4%
14,O=C(Cn1c(NCCO)nc2ccccc21)Nc1ccc2c(c1)OCCCO2,inactive: 1.46%
15,CC(C)CCNC(=O)CC1C(=O)N(Cc2ccccc2)C(C)c2nc3ccccc3n21 (configuration not stated),inactive: 12.6%
16,CN1C(=O)CC(n2c(CO)nc3ccccc32)C1=O (configuration not stated),inactive: 4.65%
17,Cn1c(=O)c2c(ncn2CC(=O)Nc2cc(S(=O)(=O)N3CCCCC3)ccc2Cl)n(C)c1=O,inactive: 5.83%
18,Cc1nc2cc(C(F)(F)F)ccc2n1C1CCN(Cc2nnnn2CCc2ccccc2)CC1,inactive: 13%
19,CC(=O)Nc1ccc(Oc2c([N+](=O)[O-])cc([N+](=O)[O-])cc2[N+](=O)[O-])cc1,inactive: 14.6%

row,SMILES,inhibition
1,O=C(CCNC(=O)N1CCn2c1nc1ccccc12)NCc1ccc(Cl)cc1,inactive: 8.48%
2,Cc1cc(NC(=O)CSc2nc3ccccc3n2CC(=O)N2CCC(C)CC2)no1,inactive: 4.15%
3,CSCC[C@H](NC(=O)N1CCn2c1nc1ccccc12)C(=O)NC1CCCCC1,inactive: 2.17%
4,O=S(=O)(c1ccc(F)cc1)N1CCn2c(nc3ccccc32)C1,inactive: 7.99%
5,CC1=NNC(=O)C1CCC(=O)N/N=C/C=C/c1ccccc1 (configuration not stated),inactive: 16.5%
6,CC(=O)Nc1ccc([As](=O)(O)O)c(O)c1,inactive: 17.7%
7,COc1ccc2c(c1)C1(Nc3ccccc3-c3nc4ccccc4n31)C(=O)N2 (configuration not stated),inactive: 7.78%
8,CCOC(=O)c1ccc(NC(=O)C2CC(=O)Nc3nc4ccccc4n32)cc1 (configuration not stated),inactive: 7.95%
9,CCC(C(=O)NC1CCCC1)n1c(SCc2cccc(C)c2)nc2ccncc21 (configuration not stated),inactive: -2.4%
10,CC(C)[C@H](NC(=O)N1CCn2c1nc1ccccc12)C(=O)NCc1ccc(F)cc1,inactive: 0.42%
11,COCC(=O)N(C)[C@H]1C[C@H]2c3cc(Oc4ccccc4C)ccc3CCN2C(=O)[C@H]1[C@H](C)O,inactive: 16.6%
12,COc1ccc(CCNC(=O)[C@H](C)NC(=O)N2CCn3c2nc2ccccc23)cc1OC,inactive: 6.63%
13,COCCN1CCn2c(nc3cc(NC(=O)Cn4nc(C)c5ccccc5c4=O)ccc32)C1,inactive: 6.7%
14,O=C(Cn1cnc2ccccc21)Nc1ccc(C(=O)O)cc1,inactive: 4.46%
15,O=C(C1COc2ccccc2O1)N1CCn2c(nc3ccccc32)C1 (configuration not stated),inactive: 6.55%
16,Fc1ccc2c(c1)nnn2C1CCN(Cc2nnnn2CCc2ccccc2)CC1,inactive: 9.59%
17,COc1ccccc1OCC(O)Cn1c(=N)n(CCN2CCCCC2)c2ccccc21 (configuration not stated),inactive: 8.68%
18,CC(C)C[C@H](NC(=O)N1CCn2c1nc1ccccc12)C(=O)NCc1ccccc1,inactive: 10.4%
19,C[C@H]1OP(=O)(Oc2ccccc2)C[C@@H]2O[C@@H]21 (some centres not stated),inactive: 2.28%
